## scFv variants of Ab-95 (light chain) against a SARS-CoV-2 spike peptide

Binding partner: SARS-CoV-2 spike HR2 peptide, sequence PDVDLGDISGINAS.

Ab-95 is the parent antibody, in scFv form: VH, then a (GGGGS)3 linker, then VL. The heavy chain is unchanged in all variants.
VH: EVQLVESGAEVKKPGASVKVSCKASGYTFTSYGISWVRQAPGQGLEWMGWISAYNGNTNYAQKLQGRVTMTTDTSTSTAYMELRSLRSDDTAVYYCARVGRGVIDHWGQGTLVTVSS
VL: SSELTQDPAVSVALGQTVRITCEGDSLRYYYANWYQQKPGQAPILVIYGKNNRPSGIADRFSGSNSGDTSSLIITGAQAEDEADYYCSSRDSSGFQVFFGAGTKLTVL

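Phage display of a naive human antibody library on the peptide gave the parent. AAYL52 was designed without a model: most single CDR substitutions and a random sample of double and triple ones. The scFvs were displayed on barcoded MATa yeast, the peptide on MATalpha yeast. The frequency of each diploid, read from paired DNA barcodes, reflects how well the two displayed proteins bind. Scores were corrected for input abundance and mapped to Kd with protein pairs of known affinity run in the same pool. Each pool was mated in three replicate cultures.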

Positions count from residue 1 of the parent VL; D25M puts M in place of D. Every variant below is changed at D25 of the VL (sequential numbering). Kd is apparent (estimated from mating counts) and averaged on the log scale over replicates with a signal. Smaller is tighter. "nd" marks a missing value. The strain was present, yet no cells mated with the target were sequenced in any replicate, which points to weak or no binding.

- D25M N33Q R53S = 1.2 µM (3 of 3 replicates)
- D25S = 87 nM (3 of 3 replicates)
- D25Q Y31Q V97L = 38 nM (3 of 3 replicates)
- G24I D25W Y29T = 60 µM (2 of 3 replicates)
- D25K S89C V97A = 180 nM (3 of 3 replicates)
- D25H N51W R53C = 43 µM (1 of 3 replicates)
- E23K D25T = 100 nM (3 of 3 replicates)
- D25W N33L S89N = nd (0 of 3 replicates)
- D25P Y29Q R53Q = 110 nM (1 of 3 replicates)
- D25G R28E S89L = 1.6 µM (3 of 3 replicates)
- D25N L27K = 380 nM (3 of 3 replicates)
- D25R N33R F95M = 14 µM (2 of 3 replicates)
- G24E D25N S92G = 3.8 µM (1 of 3 replicates)
- D25N R53Y D91Q = nd (0 of 3 replicates)
- D25H G94W F98R = 62 nM (3 of 3 replicates)
- D25M G94I = 8.8 µM (2 of 3 replicates)
- D25E Y29W S55E = 78 nM (3 of 3 replicates)
- D25K N51S N52V = 440 nM (3 of 3 replicates)
- D25H Y30A N33A = 73 nM (3 of 3 replicates)
- D25N S26K N52W = 30 µM (1 of 3 replicates)
- D25G S93R V97S = nd (0 of 3 replicates)
- D25W Y30R N51T = 2.5 µM (3 of 3 replicates)
- D25L Y31T A32F = 8.0 µM (1 of 3 replicates)
- D25E Y29K F95Y = 69 nM (3 of 3 replicates)
- D25T S26E D91T = 19 µM (3 of 3 replicates)
- D25T F95L Q96W = 89 nM (3 of 3 replicates)
- D25K D91T S92E = 4.9 µM (3 of 3 replicates)
- E23G D25F N52I = 3.0 µM (1 of 3 replicates)
- D25K Y29G S92D = 16 nM (3 of 3 replicates)
- D25T = 150 nM (3 of 3 replicates)
- G24Q D25Y S88V = 26 µM (1 of 3 replicates)
- D25Q Y29S F98H = 110 nM (3 of 3 replicates)
- D25Q A32D R53W = 39 µM (1 of 3 replicates)
- D25T R53Y G94K = 13 µM (1 of 3 replicates)
- D25Y A32G S88T = 39 µM (1 of 3 replicates)
- D25S S88V S93P = 7.6 µM (2 of 3 replicates)
- D25R Y29M G49E = 47 µM (2 of 3 replicates)
- D25W A32C N51C = nd (0 of 3 replicates)
- D25T S26Q Q96P = 9.4 µM (2 of 3 replicates)
- D25P Y30D Q96K = 73 nM (3 of 3 replicates)
- D25F N52T V97Y = 1.4 µM (2 of 3 replicates)
- D25H V97E = 2.6 µM (2 of 3 replicates)
- D25E Y31T R53S = 460 nM (3 of 3 replicates)
- D25I Y30L S93V = 5.6 µM (1 of 3 replicates)
- D25R N51D S88Y = nd (0 of 3 replicates)
- E23Q D25K N51H = 1.9 µM (3 of 3 replicates)
- D25M Y30S G94A = 72 nM (3 of 3 replicates)
- D25S Y31L R90S = 11 µM (2 of 3 replicates)
- D25W R28G F95S = 1.3 µM (3 of 3 replicates)
- D25K V97E = 53 nM (3 of 3 replicates)
- D25A N52E S88G = 53 nM (3 of 3 replicates)
- D25Y R28G R53A = 25 µM (2 of 3 replicates)

A selection of 3 entries from above:

changes,Kd (apparent),seen in
D25S S88V S93P,7.6 µM,2/3
D25N L27K,380 nM,3/3
E23Q D25K N51H,1.9 µM,3/3

Three control strains display no target. For library AAYL52, 28% of the pairings with them gave a signal, with a median of 8.2 µM and one signal in twenty below 800 nM, so weak values seen in few replicates may be background. In this assay the parent's reference entry averaged 200 nM; its copy inside this library read 180 nM.

Source: Engelhart et al. 2022 (doi:10.1038/s41597-022-01779-4), MIT Lincoln Laboratory and A-Alpha Bio; data file from the FLAb repository.